These results are taken from ChEMBL document CHEMBL1135388, “Design and synthesis of pyrrolidine-5,5-trans-lactams (5-oxohexahydropyrrolo[3,2-b]pyrroles) as novel mechanism-based inhibitors of human cytomegalovirus protease. 2. Potency and chirality” (J Med Chem, 2002).

For experiment [1], the target named is T1, Capsid scaffolding protein (Human cytomegalovirus (strain AD169) (HHV-5) (Human herpesvirus 5), UniProt P16753).
T1 sequence (P16753 whole entry): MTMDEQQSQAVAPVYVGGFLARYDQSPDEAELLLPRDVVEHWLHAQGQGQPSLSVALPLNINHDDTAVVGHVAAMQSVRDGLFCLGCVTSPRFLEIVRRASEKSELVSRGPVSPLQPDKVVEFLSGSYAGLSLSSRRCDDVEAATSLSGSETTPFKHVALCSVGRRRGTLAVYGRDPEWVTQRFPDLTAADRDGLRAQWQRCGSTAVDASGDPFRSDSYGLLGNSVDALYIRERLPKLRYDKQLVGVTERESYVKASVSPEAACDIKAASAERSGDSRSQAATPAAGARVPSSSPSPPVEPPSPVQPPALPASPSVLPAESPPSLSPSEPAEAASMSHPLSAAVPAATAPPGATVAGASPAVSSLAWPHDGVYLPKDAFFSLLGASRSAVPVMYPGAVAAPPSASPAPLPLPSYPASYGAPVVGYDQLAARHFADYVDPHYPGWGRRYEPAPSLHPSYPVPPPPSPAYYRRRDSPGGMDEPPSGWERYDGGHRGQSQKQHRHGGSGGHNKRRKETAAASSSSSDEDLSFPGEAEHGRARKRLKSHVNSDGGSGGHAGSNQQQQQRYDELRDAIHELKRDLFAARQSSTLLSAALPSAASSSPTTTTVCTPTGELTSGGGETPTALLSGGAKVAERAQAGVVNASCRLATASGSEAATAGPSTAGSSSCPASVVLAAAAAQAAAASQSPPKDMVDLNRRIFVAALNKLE
The experiment is described as follows: Concentration required for inhibition of human cytomegalo virus (HCMV) protease activity. Further details: species or system Human herpesvirus 5 strain AD169. The procedure, abridged:
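Chromogenic microtiter assay using recombinant HCMV δAla protease and the 7-mer release-site peptide p-nitroanilide RESYVKA-pNA as substrate. Enzyme preincubated with inhibitor for 15 min before the reaction. Cleavage was followed by pNA release, and IC50 was derived from the resulting inhibition data.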

Experiment [2] addresses T1, Capsid scaffolding protein. In words: Inhibition of Human cytomegalo virus(HCMV) protease activity measured by HPLC assay. Further details: species or system Human herpesvirus 5 strain AD169.

For `C[C@@H]1C(=O)N(C(=O)C2CC2)[C@H]2CCN(C(=O)[C@@H]3CCCN3S(=O)(=O)c3cccc4c(N(C)C)cccc34)[C@H]12`, in experiment [1], it took 0.34 µM to reach half-maximal inhibition (IC50). For `CC(=O)N1C(=O)C(C)C2C1CCN2C(=O)OCc1ccccc1` (centres undefined), half-maximal inhibition in experiment [2] (IC50) was put at 110 µM. Same read-out and setting: as for `CC(=O)N1C(=O)[C@H](C)C2[C@H]1CCN2C(=O)OCc1ccccc1` (some centres undefined), the figure is above 1000 µM; as for `CC(=O)N1C(=O)[C@@H](C)C2[C@@H]1CCN2C(=O)OCc1ccccc1` (some centres undefined), 79 µM.
